Results published in patent US20150238507A1, “BENZODIAZEPINES FOR TREATING SMALL CELL LUNG CANCER” (GlaxoSmithKline LLC, priority 2012, published 2015).

Experiments:
[1] = test system: SCLC cell lines and patient-derived SCLC models; conditions: soft agar, low density, 21 days, analysed by microscopy
SCLC cell lines = conditions: 3 days treatment

For `CCNC(=O)C[C@@H]1N=C(c2ccc(Cl)cc2)c2cc(OC)ccc2-n2c(C)nnc21` [2-[(4S)-6-(4-chlorophenyl)-1-methyl-8-(methyloxy)-4H-[1,2,4]triazolo[4,3-a][1,4]benzodiazepin-4-yl]-N-ethylacetamide], the colony formation ability [1] was “attenuates colony formation ability” and the “cell death (caspase 3/7 activation, PARP cleavage, subG1)” value (SCLC cell lines) was “induces cell death”.
